Ab-95 light chain CDR variants: yeast mating affinities

From the AlphaSeq antibody data of Engelhart et al. 2022 (doi:10.1038/s41597-022-01779-4), copy in the FLAb collection.

Antigen: PDVDLGDISGINAS, a 14-residue peptide of the SARS-CoV-2 spike HR2 region.

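The parent was found by panning a naive human phage display library on the peptide. In library AAYL52, one, two or three CDR residues were substituted; doubles and triples were drawn at random. In AlphaSeq, yeast of one mating type display the scFv and yeast of the other type display the target. Binding brings cells together so that they mate, and sequencing counts the barcode pairs among the diploids. A regression on co-assayed BCL2-family reference pairs converts the normalised counts of each replicate to an apparent Kd. Each pool was mated in three replicate cultures.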

Parent: Ab-95, a human scFv built as VH, a 15-residue (Gly4Ser)3 linker, VL. Only the CDRs of the light chain vary.
VH: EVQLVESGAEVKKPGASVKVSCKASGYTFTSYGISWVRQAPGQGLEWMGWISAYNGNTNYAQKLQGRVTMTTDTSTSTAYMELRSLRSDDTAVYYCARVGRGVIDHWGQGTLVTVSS
VL: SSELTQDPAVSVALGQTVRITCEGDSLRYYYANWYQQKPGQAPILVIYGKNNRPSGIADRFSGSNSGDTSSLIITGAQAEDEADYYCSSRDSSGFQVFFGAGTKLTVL

The parent's light chain CDRs are EGDSLRYYYAN, GKNNRPS, SSRDSSGFQVF; each variant's own CDRs replace them letter for letter.
Values are log10 of the apparent Kd in nM; lower means stronger binding.
Where no diploid with the target was found in that replicate, the entry reads "n.d.": below detection, most likely a poor binder, though not proof of it.
Empty control strains, which show no peptide, gave a signal in 28% of pairings with library AAYL52; the median was 3.91 and 95% of these signals were weaker than 2.90. No background was subtracted. For each scFv, signals with the empty controls are counted beside the result, with their mean in brackets.

CDR-L1 | CDR-L2 | CDR-L3 | log10 Kd (nM) by replicate | signal with controls
EGTSLYYYYAN | GKNNRPS | SSRDSSGFQVW | 3.50 / 2.97 / 2.62 | 0/9
EGDSLVYLEAN | GKNNRPS | SSRDSSGFQVF | 2.56 / 2.64 / 2.64 | 7/9 (3.88)
EGDSLRYYHAN | GKNNRPS | STRDSSGFQSF | 2.06 / 2.71 / 2.53 | 1/9 (4.29)
EGDSLRYYYAV | GMNNRPS | SSRDSSGFCVF | n.d. / n.d. / n.d. | 1/9 (3.35)
EGDSLRYYYAN | GKNNRPS | SSRDRHGLQVF | 3.22 / 2.95 / 2.88 | 2/9 (4.58)
EGDSLRYYYAN | GKNNRPS | SSRLSEGCQVF | 4.46 / 3.61 / n.d. | 3/9 (4.23)
EGDSLREYYAN | GKNNRAS | SSRDSSGFLVF | 2.95 / 3.15 / 2.88 | 8/9 (3.49)
EGLSLRYYYAI | GKNNRPS | SSHDSSGFQVF | 3.76 / n.d. / n.d. | 2/9 (3.48)
IGDSLRYYYAN | GKNNRWS | SSNDSSGFQVF | 2.99 / 3.62 / 3.62 | 3/9 (4.04)
EGDSLAYYYAN | GKYNRPS | SSRDSSGFQVF | n.d. / n.d. / n.d. | 2/9 (4.74)
EGDSLRYYYAE | GKNNRDS | SQRDSSGFQVF | 4.34 / 3.84 / n.d. | 2/9 (4.70)
EGDSCRYYYAN | GKNNRPS | SSRRGSGFQVF | 4.27 / n.d. / n.d. | 2/9 (4.24)
EGDSLAYYYAN | GTNQRPS | SSRDSSGFQVF | 2.97 / 2.83 / 3.09 | 1/9 (3.10)
EGDSLRYYYAN | GKWNRPS | SSRDSSGFQVF | n.d. / n.d. / n.d. | 1/9 (3.93)
GGDSLWYYYAW | GKNNRPS | SSRDSSGFQVF | 4.98 / n.d. / n.d. | 4/9 (4.06)
AGDSLRYFYAN | GKNNRPS | SSRDSAGFQVF | 2.93 / 2.24 / 2.18 | 2/9 (3.38)
EGDSLRYYYGN | GKNNRPS | SSEDPSGFQVF | 4.76 / 3.00 / n.d. | 1/9 (3.42)
EGDSIRYYYAN | GKNNRPS | SSRDSSGFLVF | 4.31 / 3.09 / 4.28 | 1/9 (3.25)
EGDSLRYMYAN | GKNNRES | SSRDSSGFQVF | 1.52 / 1.63 / 1.15 | 3/9 (4.02)
EGDSLRYYYAV | GKNNIPS | SSRDSSGFQVF | 4.44 / 4.90 / n.d. | 6/9 (4.01)
EGDSKRYYYNN | GKNNRPS | SSRDSSGFQVD | 3.87 / n.d. / n.d. | 2/9 (3.81)
EGDSLRYYPAH | GKNNRPS | SSRDSSGFQVM | 3.98 / 4.71 / n.d. | 2/9 (4.77)
EGGSGRYIYAN | GKNNRPS | SSRDSSGFQVF | 3.13 / 2.54 / 3.31 | 2/9 (4.02)
EGDSLRYYYAN | GYNNRPS | SSRDISGFQVF | n.d. / 3.66 / 3.39 | 1/9 (3.94)
EGDSLREYYAN | GQNNNPS | SSRDSSGFQVF | 3.14 / 3.27 / 3.49 | 8/9 (3.84)
EGDSLVYYPAN | GKNNRPS | ISRDSSGFQVF | 3.08 / 3.03 / 3.04 | 1/9 (4.47)
EGDSLRYWYAN | QKNNRPS | SSRDSSGFQVA | 2.43 / 3.08 / 3.28 | 4/9 (3.81)
EGDSERYYYAN | GKNNRPS | SSRDSSGFQVF | 3.14 / 3.36 / 3.25 | 2/9 (3.10)
QGDSLRYYYHN | GKNNRPS | SSRDSAGFQVF | 2.30 / 3.11 / n.d. | 2/9 (3.18)
EGDSKRYYYAN | GKNNRPQ | SSRDSEGFQVF | 4.67 / n.d. / n.d. | 2/9 (3.66)
KGDSLRYYYAN | GKNNRPS | YSRDSSGHQVF | 1.94 / 2.75 / 1.81 | 0/9
EGDSLRSYYFN | GKANRPS | SSRDSSGFQVF | n.d. / n.d. / 2.68 | 3/9 (3.26)
EGDSGRYYYAN | GKNNRPS | SSRESSGFSVF | 3.45 / 5.66 / 3.74 | 7/9 (3.99)
EGDSLRYYCAN | GKNNRPS | SSRDSSGFQVF | 2.07 / 2.44 / 1.74 | 2/9 (4.12)
EGDVLRYMMAN | GKNNRPS | SSRDSSGFQVF | 2.17 / 2.00 / 1.71 | 4/9 (3.79)
EGDSLRYYYAN | GKNNRIS | SSRDSSGEQEF | n.d. / n.d. / n.d. | 2/9 (3.41)
DGDSLRQYYAN | GKNNRPS | SSRDSSGFTVF | 3.92 / 2.86 / 3.40 | 3/9 (4.18)
EGDSLRYYYAN | GKNNPPS | SSRESSGFQVF | 3.83 / 4.49 / n.d. | 1/9 (4.33)
EGDSLRYYYAN | GKNGRPS | SSRDSGGFQVC | n.d. / 5.28 / n.d. | 1/9 (3.86)
EGDSLRYYMAN | GKANRPS | VSRDSSGFQVF | 3.41 / 3.00 / 2.83 | 1/9 (3.58)
EGDSLRYYYAN | GKNNRPV | SSRVSSGFQFF | 3.71 / 3.00 / n.d. | 3/9 (4.37)
EGDSIRYYYAN | GKNNRPS | SMRDSSGFQVI | 2.66 / n.d. / 3.81 | 0/9
EGDSLYYYYAN | GKNNRPS | SSRDSSKFQVF | 2.31 / 2.33 / 2.63 | 4/9 (4.35)
EGDSLRYYYAN | KKNNRPS | SSRSSSSFQVF | 1.77 / n.d. / n.d. | 0/9
EGDVLRYYYAN | GKNNRPK | SSRDSSGFQHF | n.d. / n.d. / n.d. | 0/9
EGDSLRTGYAN | GHNNRPS | SSRDSSGFQVF | 1.09 / 1.02 / 0.55 | 4/9 (4.07)
FGDSLRYYYAN | GKNRRPS | SSRDSIGFQVF | n.d. / 4.35 / n.d. | 2/9 (3.90)
EGDSLLYVYAN | GKNNRRS | SSRDSSGFQVF | 2.69 / 3.55 / n.d. | 0/9
EMDELRYYYAN | GKSNRPS | SSRDSSGFQVF | 3.86 / 2.27 / 2.17 | 4/9 (3.75)
EGDSLRYYLAN | GKNDDPS | SSRDSSGFQVF | 3.38 / 4.07 / 4.28 | 3/9 (3.15)
EGDSLRYYYAN | GKNYRPS | SERDSSGFQVK | 2.49 / 2.37 / 3.32 | 2/9 (4.16)

The first 4 entries again:

CDR-L1,CDR-L2,CDR-L3,log10 Kd (nM) by replicate,signal with controls
EGTSLYYYYAN,GKNNRPS,SSRDSSGFQVW,3.50 / 2.97 / 2.62,0/9
EGDSLVYLEAN,GKNNRPS,SSRDSSGFQVF,2.56 / 2.64 / 2.64,7/9 (3.88)
EGDSLRYYHAN,GKNNRPS,STRDSSGFQSF,2.06 / 2.71 / 2.53,1/9 (4.29)
EGDSLRYYYAV,GMNNRPS,SSRDSSGFCVF,n.d. / n.d. / n.d.,1/9 (3.35)